In publication PMC4323178 (Journal of thrombosis and haemostasis : JTH, 2011):

Biological target: DR0301 (Homo sapiens, UniProt P01903+P01911, A100K/A102G/A103R/A169T/F55Y/I96L/K41T/L162R/M171V/P40S/Q125H/Q178H/Q39Y/R42S/S66N/T106N/W38E/Y61H)
Format: binding
Details: SEM

## CC[C@H](C)[C@H](NC(=O)[C@H](CC(N)=O)NC(=O)[C@H](CCC(=O)O)NC(=O)[C@@H](NC(=O)[C@H](CC(C)C)NC(=O)[C@H](Cc1ccc(O)cc1)NC(=O)[C@H](Cc1c[nH]c2ccccc12)NC(=O)[C@H](CO)NC(=O)[C@H](CCCNC(=N)N)NC(=O)[C@H](CC(N)=O)NC(=O)[C@@H](N)CCC(=O)O)[C@@H](C)O)C(=O)N[C@@H](CCC(N)=O)C(=O)N[C@@H](CCCNC(=N)N)C(=O)N[C@@H](Cc1ccccc1)C(=O)N[C@@H](CC(C)C)C(=O)N1CCC[C@H]1C(=O)N[C@@H](CC(N)=O)C(=O)N1CCC[C@H]1C(=O)N[C@@H](C)C(=O)NCC(=O)O [FVIII581–600]
  IC50: 44 ± 7 µM
